Measured values reported in US20260355161A1, “NOVEL HETEROCYCLYL-PHENYL-METHYLAMINE DERIVATIVES, PREPARATION METHOD THEREOF, AND USE THEREOF IN PREVENTING, ALLEVIATING, OR TREATING MULTIPLE SCLEROSIS” (Cureverse Incorporated, priority 2022, published 2026).

Chains of the proteins cited; added tags and fusions are not shown. Lines headed by an entry give the natural chain unless they say otherwise; changes in a name come on top.
UniProt P21453: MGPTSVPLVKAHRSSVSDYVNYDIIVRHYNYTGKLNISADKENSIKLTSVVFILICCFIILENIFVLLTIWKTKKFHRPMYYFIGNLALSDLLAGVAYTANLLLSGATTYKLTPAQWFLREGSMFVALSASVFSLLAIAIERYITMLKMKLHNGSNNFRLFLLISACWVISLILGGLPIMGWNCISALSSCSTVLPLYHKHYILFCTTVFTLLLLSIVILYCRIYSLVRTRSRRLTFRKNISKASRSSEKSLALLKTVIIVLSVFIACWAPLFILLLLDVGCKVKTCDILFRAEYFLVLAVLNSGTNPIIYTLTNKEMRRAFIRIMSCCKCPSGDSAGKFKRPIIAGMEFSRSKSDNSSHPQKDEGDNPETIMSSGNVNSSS

How the values were obtained:
S1P1 [1] = biological target: T1, S1P1 (Homo sapiens, UniProt P21453); assay: β-arrestin recruitment after S1P1 receptor activation, S1P1 overexpressing cell line (luminescence); assay type: cell-based; conditions: read-out: β-arrestin EC50
S1P1 [2] = biological target: T1, S1P1; assay: Internalization (endosome formation) after S1P1 receptor activation, S1P1 overexpressing cell line (luminescence); assay type: cell-based; conditions: read-out: Internalization EC50, endosome formation by internalization

Question: “Methyl 1-(4-(2-(3-isocyano-4-isopropoxyphenyl)-1,3-selenazole-5-yl)benzyl)azetidine-3-carboxylate” was tested. Which EC50 (S1P1 [1]) did it give?
Answer: 3.64 nM

Question: And the EC50 (S1P1 [2])?
Answer: 0.87 nM
